The chains behind the UniProt entries cited, without tags or fusion partners.
Protein disulfide-isomerase A6 (Homo sapiens), Q15084, UniProt Q15084, whole entry, looked up: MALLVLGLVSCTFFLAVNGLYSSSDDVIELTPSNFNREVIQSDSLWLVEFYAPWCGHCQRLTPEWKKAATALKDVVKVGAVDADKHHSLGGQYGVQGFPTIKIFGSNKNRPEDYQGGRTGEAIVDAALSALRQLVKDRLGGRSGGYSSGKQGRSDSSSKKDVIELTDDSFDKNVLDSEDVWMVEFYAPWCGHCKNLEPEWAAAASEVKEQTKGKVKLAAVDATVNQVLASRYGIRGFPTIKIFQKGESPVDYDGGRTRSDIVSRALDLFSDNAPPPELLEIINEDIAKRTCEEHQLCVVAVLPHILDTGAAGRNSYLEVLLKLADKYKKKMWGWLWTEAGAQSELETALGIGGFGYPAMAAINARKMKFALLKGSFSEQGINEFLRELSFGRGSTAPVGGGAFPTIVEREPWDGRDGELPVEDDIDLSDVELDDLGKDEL

# Rows were chosen to be rich in hits. Some 2.2% of all compounds tested hit in one or more screens of this group.
# SIRT5 block = SIRT5 desuccinylase inhibitors, primary screen, biochemical, fluorescence imaging, single point, set 5; NAD-dependent protein deacylase sirtuin-5, mitochondrial (Homo sapiens), Q9NXA8; Purified SirT5, succinyl-peptide AMC, trypsin-coupled fluorescence; inhibition, % at 15 µM; 330,000 tested, 1.1% active; AID 652115, 2013; in the data active = inhibition above about 15%
# S100A4 inh HTS = inhibitors of S100A4-myosin IIA peptide binding, primary screen, biochemical, fluorescence polarization, TAMRA-MyoIIA peptide; AID 652163, 2013; inhibition, % at 10.7 µM; Protein S100-A4 (Homo sapiens), P26447; 360,000 tested, 0.14% active;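 active = mean inhibition of at least 70% across replicates, with every replicate also reaching that level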
#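 incubation = readout 5 min after mixing, signal stable up to 60 min | system = S100A4 monomer protein | buffer or medium = HEPES pH 7.2 with CaCl2, KCl, NaCl, DTT, Triton | benchmarks = neutral control DMSO, positive control TFP | also added = fluorescent myosin IIA peptide, 5 nM | compound dosing = one concentration per compound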
# PDI inh = inhibitors of human PDI, primary screen, biochemical, turbidity, single point, plate reader; Protein disulfide-isomerase (Homo sapiens), P07237; PDI insulin aggregation turbidity, A650, 90 min; inhibition, % at 10 µM; 350,000 tested, 0.052% active;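 active = mean inhibition across replicates of 30% or more, whatever share of single replicates reach that level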
# Yeast UUG start = modulators of yeast start codon fidelity, primary screen, whole organism, S. cerevisiae, single point, plate reader; S. cerevisiae UUG-firefly luciferase reporter, luminescence/redox ratio; activity score, % at 18.7 µM; 0.13% of 350,000 active; AID 602363, 2012;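 active = replicate mean at a twofold rise or more, about +100% in these data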;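 also: firefly luciferase made from a UUG start codon reports start codon fidelity; reporter light over untreated wells divided by growth signal over untreated wells; some hits fall short of that in this replicate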
# FGF22 binding = binders of human FGF22 protein, primary screen, FGF22 synaptogenesis inhibitor project, biophysical, thermal shift, single point; AID 651658, 2012; activity (Tm shift, normalised), % at 9.99 µM; recombinant FGF22 thermal shift, SYPRO orange fluorescence; percent of sucrose octasulfate shift, DMSO zero; Fibroblast growth factor 22 (Homo sapiens), Q9HCT0; 340,000 tested, 1.5% active;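 active = mean Tm shift, scaled 0 neutral to 100 positive control, at about 1.3% or above, every replicate too, limit read from the data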
# ERp5 inh = inhibitors of ERp5-driven insulin aggregation, primary screen, biochemical, turbidity, absorbance 650 nm, single point. inhibition, % at 9.99 µM. Protein disulfide-isomerase A6 (Homo sapiens), Q15084. 90 min. 350,000 tested, 0.05% active. AID 651711, 2012;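 active = mean replicate inhibition above about 25%, with every replicate also reaching it, limit read from the data, passing the limit was not always enough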
# Numbers without * were called inactive; . = not tested or not shown.
structure | SIRT5 block | S100A4 inh HTS | PDI inh | Yeast UUG start | FGF22 binding | ERp5 inh
Cc1ccc(S(=O)(=O)N(C)C)cc1NC(=O)COC(=O)C1(c2ccccc2)CC1 | -6 | 5 | -3 | 12 | 0 | 28*
CCc1ccc(OCCCC(=O)NCc2ccco2)cc1 | 2 | -3 | 1 | . | 44* | -1
Cc1ccc(OCCCC(=O)NCc2ccco2)cc1 | . | . | 1 | -4 | . | .
Cc1c(CN2CCCC(CO)(Cc3cccc(Cl)c3)C2)cnn1C (stereo not drawn) | -6 | -9 | 0 | -8 | 43* | 4
COc1cc(Cl)c(CN2CCCC(CO)(Cc3cccc(Cl)c3)C2)cc1OC (stereo not drawn) | -4 | -6 | -3 | 9 | 0 | 3
CCCCn1c(-c2csc(C(C)C)c2)n[nH]c1=S | 17* | -3 | 11 | -6 | 0 | -4
CCCc1c(C)nc(N2CCN(c3ccc(F)cc3)CC2)[nH]c1=O | 21* | 3 | -4 | -13 | 0 | 1
CO[C@@H]1CN(C)C(=O)c2ccc(NC(=O)Nc3ccccc3F)cc2OC[C@@H](C)N(C(=O)Nc2ccccc2F)C[C@H]1C | 4 | -19 | . | -10 | -1 | 1
COc1cc(C)c(C(=O)Oc2cc(C)c(C(=O)O)c(O)c2C)c(O)c1C | 8 | -9 | . | -5 | 1.6* | 1
COc1cc(C)c(C(=O)Oc2cc(C)c(C(=O)O)c(O)c2)c(O)c1 | . | -5 | . | -18 | 1 | 10
CC=Cc1ccc2n(c1=O)C[C@H]1[C@H](CO)[C@@H](C(=O)NCC3CC3)N(C(=O)CC3CC3)[C@@H]21 (mixture of isomers) | -7 | 5 | . | . | 0 | 2
C[C@H]1CN([C@@H](C)CO)C(=O)c2cc(-c3cncnc3)cnc2O[C@H]1CN(C)C(=O)Cc1ccccc1 | 3 | -4 | . | 9 | 0 | 1
CCOC(=O)/C(C#N)=C/c1cc2ccccc2nc1N1CCCCC1 | 112* | 1 | -3 | . | 0 | 3
C[C@H](CO)N1C[C@H](C)[C@@H](CN(C)Cc2ccc(-c3ccccc3)cc2)Oc2ccc(NC(=O)Cc3cn(C)c4ccccc34)cc2CC1=O | -2 | -8 | . | . | 0 | -1
COC(=O)C1CCN(C(=O)CSc2nc3nc(C)cc(C)n3n2)CC1 | -2 | -4 | 9 | 7 | . | 3
Cc1cc(C)n2nc(SCC(=O)N3CCC(C(=O)O)CC3)nc2n1 | . | -1 | 1 | . | 44* | 3
Cc1cc(C)n2nc(SC(C)C(=O)N3CC(C)OC(C)C3)nc2n1 (stereo not drawn) | . | 1 | 14 | -14 | 43* | 0
CC(C)[C@H]1COCc2cn(nn2)CC[C@H](Cc2ccccc2)C(=O)N1 | 0 | -9 | . | . | 0 | -2
COc1ccc(NC(=O)N(C)C[C@@H]2Oc3ccc(NC(=O)CCN4CCOCC4)cc3C(=O)N([C@H](C)CO)C[C@H]2C)cc1 | -2 | 13 | . | -3 | 0 | 2
Cc1cccc(NC(=O)N2CCCC(CNC(=O)c3ccccc3Cl)C2)c1C (stereo not drawn) | 31* | 3 | -4 | 11 | 0 | -1
O=C(C1CCOCC1)N1CC(=O)N2[C@H](C1)[C@H](c1ccc(/C=C/c3ccccc3)cc1)[C@@H]2CO | -4 | -2 | . | . | 0 | -3
COc1ccc(C(C)C)cc1S(=O)(=O)NCC1CCCO1 (stereo not drawn) | 15* | -3 | 2 | -16 | 0 | 2
O=C(NN=Cc1ccc2c(c1)OCO2)C1CC1 | . | 1 | 0 | -8 | 43* | -1
O=C(NN=Cc1ccc2c(c1)OCO2)NN=Cc1ccc2c(c1)OCO2 | 1 | 0 | -8 | -10 | 0 | -1
CCN(CC)CCNC(=O)c1ccc(Sc2ccc(C)cc2)c(NC(C)=O)c1 | -1 | 8 | 1 | . | 0 | 1
CCN(CC)CCNC(=O)c1ccc(Sc2ccc(Cl)cc2)c(NC(C)=O)c1 | 0 | -1 | -1 | . | 45* | -4

# Structural class, the entries above containing fluorine.
structure | SIRT5 block | S100A4 inh HTS | PDI inh | Yeast UUG start | FGF22 binding | ERp5 inh
CCCc1c(C)nc(N2CCN(c3ccc(F)cc3)CC2)[nH]c1=O | 21* | 3 | -4 | -13 | 0 | 1
CO[C@@H]1CN(C)C(=O)c2ccc(NC(=O)Nc3ccccc3F)cc2OC[C@@H](C)N(C(=O)Nc2ccccc2F)C[C@H]1C | 4 | -19 | . | -10 | -1 | 1

# Shown as a hit in ERp5 inh, of those listed so far:
SMILES,SIRT5 block,S100A4 inh HTS,PDI inh,Yeast UUG start,ERp5 inh
Cc1ccc(S(=O)(=O)N(C)C)cc1NC(=O)COC(=O)C1(c2ccccc2)CC1,-6,5,-3,12,28*

# Bioassay records: PubChem BioAssay, Broad Institute
